The results in this text go back to paper PMC12015242, “A universal cannabinoid CB1 and CB2 receptor TR-FRET kinetic ligand-binding assay” (Frontiers in Pharmacology, 2025).

Amino acid sequences for entries named in this document (tags omitted). Residues count along the entry.
UniProt P21554, 91-472: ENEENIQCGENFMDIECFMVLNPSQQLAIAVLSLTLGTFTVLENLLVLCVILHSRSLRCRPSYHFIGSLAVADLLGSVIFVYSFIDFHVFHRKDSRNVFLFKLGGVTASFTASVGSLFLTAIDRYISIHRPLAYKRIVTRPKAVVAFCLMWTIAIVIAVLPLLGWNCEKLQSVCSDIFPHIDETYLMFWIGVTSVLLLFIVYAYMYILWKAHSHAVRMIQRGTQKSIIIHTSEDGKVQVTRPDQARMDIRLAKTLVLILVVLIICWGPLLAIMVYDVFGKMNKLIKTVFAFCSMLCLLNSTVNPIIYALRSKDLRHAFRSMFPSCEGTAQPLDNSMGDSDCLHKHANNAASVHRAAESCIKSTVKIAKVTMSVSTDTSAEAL

Assay [1] deals with T1, human CB1R (SNAP-CB1R91–472) (Homo sapiens, UniProt P21554).
The target of assay [2] is T1, human CB1R (SNAP-CB1R91–472). This is another data set of the same source.

In assay [1], SR 144528 came in with a pK i of 6.43 ± 0.01. Further, in assay [2], the “pK d (kinetic)” value amounted to 6.43 ± 0.01 and the “pKd (kinetic)” value stood at 6.72 ±0.02.
